Protein sequences, listed by entry. Tags and fused reporters are not part of them. Lines headed by an entry give the natural chain unless they say otherwise; changes in a name come on top. Residues count along the entry.
UniProt P02679: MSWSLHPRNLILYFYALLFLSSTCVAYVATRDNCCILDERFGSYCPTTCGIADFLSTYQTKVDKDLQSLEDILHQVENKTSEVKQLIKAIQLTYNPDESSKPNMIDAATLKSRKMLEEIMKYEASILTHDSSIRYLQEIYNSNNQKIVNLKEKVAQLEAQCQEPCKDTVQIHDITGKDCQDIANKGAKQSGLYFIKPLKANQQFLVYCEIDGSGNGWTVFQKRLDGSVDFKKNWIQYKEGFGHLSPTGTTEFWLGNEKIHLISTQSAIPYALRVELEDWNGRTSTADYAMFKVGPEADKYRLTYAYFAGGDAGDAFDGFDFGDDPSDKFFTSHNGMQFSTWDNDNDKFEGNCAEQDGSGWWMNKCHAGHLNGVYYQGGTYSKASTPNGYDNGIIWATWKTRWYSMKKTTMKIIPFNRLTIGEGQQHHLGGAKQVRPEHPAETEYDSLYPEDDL
UniProt P02745, 23-245: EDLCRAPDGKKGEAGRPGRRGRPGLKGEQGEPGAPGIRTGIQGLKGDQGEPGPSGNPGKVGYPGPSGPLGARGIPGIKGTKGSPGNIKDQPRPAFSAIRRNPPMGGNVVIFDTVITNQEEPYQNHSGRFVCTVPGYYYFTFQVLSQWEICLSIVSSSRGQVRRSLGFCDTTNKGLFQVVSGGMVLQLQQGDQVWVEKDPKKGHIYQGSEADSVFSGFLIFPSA
C1q, UniProt P02746, 28-253: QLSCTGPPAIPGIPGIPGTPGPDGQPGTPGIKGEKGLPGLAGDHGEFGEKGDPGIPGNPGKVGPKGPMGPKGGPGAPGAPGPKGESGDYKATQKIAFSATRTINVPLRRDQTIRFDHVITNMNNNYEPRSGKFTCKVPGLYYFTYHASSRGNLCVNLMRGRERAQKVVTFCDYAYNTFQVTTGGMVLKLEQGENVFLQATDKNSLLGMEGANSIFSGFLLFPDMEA
C1q, UniProt P02747, 29-245: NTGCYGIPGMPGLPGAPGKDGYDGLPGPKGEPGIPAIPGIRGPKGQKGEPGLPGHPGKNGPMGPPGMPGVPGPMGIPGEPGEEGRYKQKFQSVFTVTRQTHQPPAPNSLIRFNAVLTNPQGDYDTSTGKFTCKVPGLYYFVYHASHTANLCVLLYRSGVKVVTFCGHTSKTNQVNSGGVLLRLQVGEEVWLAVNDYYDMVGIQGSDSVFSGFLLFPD

In paper PMC11199686:

Assays:
[1] = target: fibrin clots formed in human plasma (human (endogenous in plasma)) (UniProt P02679); assay: co-sedimentation; panel of 125I-labelled plasma proteins (25,000 cpm each) present while enhanced clots formed in plasma; 16 h, 37°C; clots washed three times in 10 mM HEPES, 70 mM NaCl, 0.5 mM EDTA, 5 M urea pH 7.4
[2] = target: fibrin clots formed in human plasma (human (endogenous in plasma)) (UniProt P02679); assay: co-sedimentation; clots formed in 45% human plasma with 20 mM CaCl2 in the presence of 125I-ligand (25,000 cpm), 40 min, 37°C, at about 70 mM, 140 mM or 1 M salt; clots spun at 1,000 x g and washed three times in reaction buffer; bound = input minus cpm in supernatants
[3] = target: fibrin clots formed in human plasma (human (endogenous in plasma)) (UniProt P02679); assay: co-sedimentation; time course: enhanced clots formed in plasma with 125I-ligand (25,000 cpm), eight times from 0 to 960 min at 37°C; washed three times with 10 mM HEPES, 70 mM NaCl, 0.5 mM EDTA, 5 M urea pH 7.4; what stays is judged covalently bound
[4] = target: fibrin clots formed in human plasma (human (endogenous in plasma)) (UniProt P02679); assay: co-sedimentation; time course: enhanced clots formed in plasma with 125I-ligand (25,000 cpm), eight times from 0 to 960 min at 37°C; washed with HEPES-1/2-saline (non-denaturing)
[5] = target: fibrin clots formed in human plasma (human (endogenous in plasma)) (UniProt P02679)

## C1q (from UniProt P02745 23-245; P02746 28-253; P02747 29-245) (complex)
[1]
  Protein incorporated into fibrin clots (%): 30.2%
  percent bound to fibrin clots: 28.5%
[2]
  percent bound to plasma clots at 70 mM salt: 2.5%
[3]
  percent bound at 30 min, after urea wash: 11%
  percent bound at 960 min, after urea wash: 17.6%
[4]
  percent bound after 16 h, non-denaturing wash: 24%
  percent bound at 30 min, non-denaturing wash: 13%
[5]
  decrease in C4 activity (haemolytic C4 consumption assay) after clotting of factor H-depleted plasma, against factor H-depleted unclotted plasma: 65.3%
  decrease in C4 activity (haemolytic C4 consumption assay) after clotting of normal human plasma, against normal unclotted plasma: 42.5%
